# Results: patent publication US8778935B2 (Centro Nacional de Investigaciones Oncologicas (CNIO), priority 2009, dated 2014)
# Sequences of proteins named here, by UniProt entry; tags and fusion partners are left off.
# UniProt P42336, whole entry: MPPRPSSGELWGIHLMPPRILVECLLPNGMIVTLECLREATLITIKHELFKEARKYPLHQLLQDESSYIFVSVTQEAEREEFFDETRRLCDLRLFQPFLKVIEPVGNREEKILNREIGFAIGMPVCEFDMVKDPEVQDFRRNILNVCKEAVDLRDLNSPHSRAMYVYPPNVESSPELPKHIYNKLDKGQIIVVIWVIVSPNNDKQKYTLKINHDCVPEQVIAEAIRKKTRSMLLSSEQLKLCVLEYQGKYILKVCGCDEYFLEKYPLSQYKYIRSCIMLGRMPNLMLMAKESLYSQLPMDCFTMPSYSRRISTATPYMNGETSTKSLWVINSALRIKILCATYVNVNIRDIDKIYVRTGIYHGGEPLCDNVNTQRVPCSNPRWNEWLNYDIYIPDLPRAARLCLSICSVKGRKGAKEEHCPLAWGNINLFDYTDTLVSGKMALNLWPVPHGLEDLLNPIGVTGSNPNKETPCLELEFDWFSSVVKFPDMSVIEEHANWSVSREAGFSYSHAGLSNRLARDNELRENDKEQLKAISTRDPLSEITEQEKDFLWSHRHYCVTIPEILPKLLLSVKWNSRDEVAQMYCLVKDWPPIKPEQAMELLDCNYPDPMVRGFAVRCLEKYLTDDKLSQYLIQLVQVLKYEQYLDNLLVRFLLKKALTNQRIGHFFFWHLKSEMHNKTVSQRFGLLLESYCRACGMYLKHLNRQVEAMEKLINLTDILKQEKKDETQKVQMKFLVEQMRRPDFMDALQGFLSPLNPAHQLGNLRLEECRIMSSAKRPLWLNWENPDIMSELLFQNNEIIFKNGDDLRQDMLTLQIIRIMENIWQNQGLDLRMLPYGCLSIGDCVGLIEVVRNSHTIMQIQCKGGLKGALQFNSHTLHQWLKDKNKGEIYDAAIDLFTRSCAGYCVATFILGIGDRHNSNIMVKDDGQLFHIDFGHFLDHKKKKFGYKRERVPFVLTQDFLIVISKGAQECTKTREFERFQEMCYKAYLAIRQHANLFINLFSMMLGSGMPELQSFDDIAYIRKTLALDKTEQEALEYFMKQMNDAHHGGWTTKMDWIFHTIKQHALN
# UniProt P27986, whole entry partner: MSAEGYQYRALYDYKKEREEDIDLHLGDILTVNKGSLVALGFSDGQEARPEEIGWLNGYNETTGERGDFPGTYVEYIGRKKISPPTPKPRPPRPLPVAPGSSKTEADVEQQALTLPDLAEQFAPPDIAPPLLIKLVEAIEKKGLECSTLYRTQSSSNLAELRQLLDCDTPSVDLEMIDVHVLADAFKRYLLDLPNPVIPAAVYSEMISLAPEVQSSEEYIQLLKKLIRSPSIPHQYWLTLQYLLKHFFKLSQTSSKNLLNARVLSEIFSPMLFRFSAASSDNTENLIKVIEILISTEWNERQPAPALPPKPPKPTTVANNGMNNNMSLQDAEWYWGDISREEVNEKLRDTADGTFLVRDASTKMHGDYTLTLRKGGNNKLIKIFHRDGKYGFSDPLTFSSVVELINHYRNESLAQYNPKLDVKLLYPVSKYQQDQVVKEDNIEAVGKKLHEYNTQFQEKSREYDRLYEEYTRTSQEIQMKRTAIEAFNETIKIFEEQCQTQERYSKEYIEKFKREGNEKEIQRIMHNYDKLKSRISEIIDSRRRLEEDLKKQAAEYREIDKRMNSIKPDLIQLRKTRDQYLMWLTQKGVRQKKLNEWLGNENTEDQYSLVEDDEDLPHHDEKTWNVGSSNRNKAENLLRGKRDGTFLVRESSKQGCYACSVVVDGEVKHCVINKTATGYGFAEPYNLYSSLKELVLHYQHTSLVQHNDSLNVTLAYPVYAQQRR
# Target: PI3K (p110α/p85α) (Homo sapiens, UniProt P42336)
# Test: PI3K Activity Assay (ADP Hunter Plus)
# Format: biochemical
# Conditions: read-out: PI3Kα IC50; quantitative results of Table 4
smiles,measurement,value
CS(=O)(=O)N1CC2(CCN(Cc3cn4cc(-c5cccc6[nH]ncc56)nc(N5CCOCC5)c4n3)CC2)C1,IC50,3000 nM
